# According to patent US10590115B2, “Tetrahydroquinazoline derivatives useful as anticancer agents” (PFIZER INC., priority 2018, dated 2020):
# Molecular target: T1, GDP-loaded kRas (1-169) G12C, C51S, C80L, C118S (Homo sapiens, UniProt P01116, C118S/C51S/C80L/G12C)
# T1 construct: GDP-loaded kRas (1-169) G12C, C51S, C80L, C118S
# Assay: Mass Spectrometry Reactivity Assay (MSRA), covalent adduct with kRas G12C
# Format: binding
# Details: 0.5 h at room temperature; 5 μM KRas protein; typical final concentration of the compounds 10 μM
# Description: Mass Spectrometry Reactivity Assay (MSRA)
# Compounds presented in the present invention covalently bind to kRas G12C using MSRA to detect a covalent adduct of the exemplary compound and kRas G12C. GDP-loaded kRas (1-169) G12C, C51S, C80L, C118S were diluted in the protein assay buffer 25 mM Hepes pH7.5, 200 mM NaCl, 5% glycerol to concentration of 5 μM and 20 μl of protein was transferred into 96-well plate. Initial compound stocks were generated at concentrations 100-fold higher that their desired assay concentrations. See K-Ras(G12C) inhibitors allosterically control GTP affinity and effector interactions; Ostrem J M, Peters U, Sos M L, Wells J A, Shokat K M; Nature. 2013, Nov. 28; 503(7477):548-51.
# Exemplary compounds dissolved in DMSO were diluted 100-fold into solution containing 20 μl of 5 μM KRas protein in the 96-well plate to initiate the reaction. Mosquito (TPP Lab tech) liquid handling robot was used to add compounds to protein solution. Typical final concentration of the compounds was 10 μM. The plates were placed on a shaker for 1 min at RT, sealed and incubated at room temperature for specified time period. 5 μl of reaction mix was added to 10 μl of 0.2% formic acid stop solution and mixed well. […]
# The percent of modified protein at the defined concentration of exemplary compound was calculated using the following formula: % mod=Num of modified peak/Sum of modified+unmodified. […]
structure (smiles),measurement,value
"C=CC(=O)N1CCN(c2nc(N3CC(N(C)C)C3)nc3c2C[C@@H](C)[C@H](c2c(Cl)ccc4[nH]ncc24)C3)CC1 (single isomer, unassigned) [Example F10]",% Modification (0.5 h),85%
